Our source for the inhibition values is PubChem BioAssay AID504490 (NMMLSC, 2011).

This is a selection; strong and weak results do not stand in their true shares. Active and inactive are the calls of the source.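 How the source made its calls: active means inhibition above a set limit, near 3 SD of compounds lacking own fluorescence (cut at about 54% in these data); inactive means the rest.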

The assay has as its system beta-arrestin 1 C-terminal peptide binding to AP2 beta2-adaptin appendage (human). In words: blockers of arrestin peptide association with AP2 adaptin – biochemical, GPCR trafficking, flow cytometry, primary screen (AID 504490).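 Further: plate controls were DMSO wells for no effect and 5 µM unlabelled arrestin peptide for full effect.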 Particulars: FITC-arrestin peptide / GST-AP2 beads, at 10 µM, active compounds read high, AP2 beta2 appendage carries R879A mutation. For orientation: A flow cytometer gives signals particle by particle.
For the compound `CCC(=O)N(c1ccccc1)C1(COC)CCN(CCc2cccs2)CC1`, the inhibition (commonly the relative decrease from the control value, in per cent) was inactive: 30.7%.
`CCC(=O)N(c1ccccc1)C1(COC)CCN(CCn2nnn(CC)c2=O)CC1`: the inhibition is inactive: 1.4%.
